Patent US12268752B2, “Non-natural amatoxin-type antibody conjugate” (SICHUAN BAILI PHARMACEUTICAL CO. LTD., priority 2017, dated 2025)
pIC50: −log10 of the molar value.

Legend:
[1] = tested on: SKOV3; test: In vitro activity test (MTS, 4 days) on SKOV3 cells; format: cell-based; settings: MTS after 4 days
Protocol: (§1) • Cells: from Cell Bank of Chinese Academy of Sciences • Tumor cell culture medium: Gibco • FBS: BIOWEST 2) Preparation of Culture Medium • Growth medium (with 10% FBS, Penicillin/streptomycin (100 U/mL)) • Detection medium (with 1% FBS, Penicillin/streptomycin (100 U/mL)) 3) Operations
(§2) The ultraviolet lamp of biological safety cabinet was turned on 30 minutes in advance for irradiation, and then ventilation was conducted for 3 minutes. The growth medium, detection medium, D-PBS and trypsin were pre-heated in a 37° C. thermostat water bath, surface-disinfected with alcohol and placed same in the biological safety cabinet. […] According to the number previously determined, the cells are plated at a density of 80 ul/well in a 96 well plate, wherein only well E11, F11 and G11 were only added with 80 ul of detection medium, and marginal wells were filled with 150 ul of DPBS. […]
(§3) 4 days later, MTS reagent was taken out, thawed at room temperature away from light, and homogeneously mixed in a vortex mixer. […] After the completion of the reaction, the 96 well plate was taken out, and measured for the absorbance value at OD490 nm using a microplate reader; and data recording, sorting and storage were performed.

[2] = tested on: NCI-N87; test: In vitro activity test (MTS, 4 days) on NCI-N87 cells; format: cell-based; settings: MTS after 4 days
Protocol: as §1, §2, §3

Trastuzumab
pIC50 [1]: < 6.00 | pIC50 [2]: 6.00 to 6.70
